This is an account of results in publication PMC5147862, “The RAS-Effector Interface: Isoform-Specific Differences in the Effector Binding Regions” (PLoS ONE, 2016).

In this assay the target is T1, HRAS, mGppNHp-bound (human, UniProt P01112 1-189).
T1 construct: human HRAS; Loaded with the fluorescent non-hydrolysable GTP analog mant-GppNHp (mGppNHp); That the RAS proteins are the ones made with pGEX is surmised
Nature of the assay: fluorescence polarisation; MBP-tagged effector domain (0.05-100 μM) titrated to 1 μM RAS-mGppNHp; 50 mM Tris/HCl pH 7.5, 100 mM NaCl, 5 mM MgCl2, 3 mM dithiothreitol, 25°C; quadratic ligand binding equation. To be noted: both partners purified.

B1: RAS association (RA) domain of PLCε, MBP fusion (domain or fragment, human, UniProt Q9P212 2130-2240, looked up)
chain: LSSEEESFFVQVHDVSPEQPRTVIKAPRVSTAQDVIQQTLCKAKYSYSILSNPNPSDYVLLEEVVKDTTNKKTTTPKSSQRVLLDQECVFQAQSKWKGAGKFILKLKEQVQ
notes: human PLCε, RA domain (RA2), aa 2130-2240; also called PLCε-RA2
In the case of B1, binding was characterised by a dissociation constant (Kd) of 3.7 µM.
